Laboratory results: PMC6335200 (Journal of medicinal chemistry, 2018)

System: DENV2 (New Guinea C strain)

SMILES	anti-DENV activity (in words)
COc1cc(-c2cnc3c(N4CCC(F)(F)CC4)snc3c2)ccc1N [Compound 12b, 4-(3-(4,4-Difluoropiperidin-1-yl)isothiazolo[4,3-b]pyridin-6-yl)-2-methoxyaniline]	no antiviral activity
COc1cc(-c2cnc3c(N4CCC(C(N)=O)CC4)snc3c2)ccc1N [Compound 12c, 1-(6-(4-Amino-3-methoxyphenyl)isothiazolo[4,3-b]pyridin-3-yl)piperidine-4-carboxamide]	no antiviral activity
COc1cc(-c2cnc3c(N4CCOC(C)(C)C4)snc3c2)ccc1N [Compound 12o, 4-(3-(3,3-Dimethylpiperidin-1-yl)isothiazolo[4,3-b]pyridin-6-yl)-2-methoxyaniline]	no antiviral activity beyond toxicity
COc1cc(-c2cnc3c(N4CCOC[C@@H]4C)snc3c2)ccc1N [Compound 12p, (S)-2-Methoxy-4-(3-(3-methylmorpholino)isothiazolo[4,3-b]pyridin-6-yl)aniline]	no antiviral activity beyond toxicity
COc1cc(-c2cnc3c(N4CCOC[C@H]4C)snc3c2)ccc1N [Compound 12q, (R)-2-Methoxy-4-(3-(3-methylmorpholino)isothiazolo[4,3-b]pyridin-6-yl)aniline]	lacked antiviral activity
